Source: paper PMC8878264

Test system: Nc1ncnc2c1ncn2[C@@H]1O[C@H](COP(=O)(O)OP(=O)(O)OP(=O)(O)O)[C@@H](O)[C@H]1O
Experiment: purified protein
Conditions: 50 mM Tris-HCl pH 9.0, 120 mM NaCl, 5 mM KCl, 50 mM glucose, 2 mM CaCl2, 0-3.0 mM ATP, products AMP and PPi

“rSmNPP5 (recombinant SmNPP5) (Schistosoma mansoni)” showed a Km of 217 ± 26 µM.
